How the values were obtained:
[1] = target: T1, Delta-type opioid receptor (Homo sapiens, UniProt P41143); assay: Displacement of [3H]DPDPE from human delta-opioid receptor transfected in HN9.10 cells after 3 hrs
Mu-type opioid receptor [2] = target: T2, Mu-type opioid receptor (Rattus norvegicus, UniProt P33535); assay: Displacement of [3H]DAMGO from rat mu-opioid receptor transfected in HN9.10 cells after 3 hrs
[3] = target: T1, Delta-type opioid receptor; assay: Agonist activity at human delta-opioid receptor expressed in CHO cells after 90 mins by [35S]GTP-gamma-S assay
Mu-type opioid receptor [4] = target: T2, Mu-type opioid receptor; assay: Agonist activity at rat mu-opioid receptor expressed in CHO cells after 90 mins by [35S]GTP-gamma-S assay
[5] = target: Delta-type opioid receptor (Mus musculus, UniProt P32300); assay: Agonist activity at mouse delta-opioid receptor by MVD assay
Mu-opioid receptor = Mu-opioid receptor (Cavia porcellus, UniProt Q8CGM4); assay: Agonist activity at guinea pig mu-opioid receptor by GPI assay

The chains behind the UniProt entries cited, without tags or fusion partners. Residues count along the entry.
UniProt P41143, whole entry, looked up: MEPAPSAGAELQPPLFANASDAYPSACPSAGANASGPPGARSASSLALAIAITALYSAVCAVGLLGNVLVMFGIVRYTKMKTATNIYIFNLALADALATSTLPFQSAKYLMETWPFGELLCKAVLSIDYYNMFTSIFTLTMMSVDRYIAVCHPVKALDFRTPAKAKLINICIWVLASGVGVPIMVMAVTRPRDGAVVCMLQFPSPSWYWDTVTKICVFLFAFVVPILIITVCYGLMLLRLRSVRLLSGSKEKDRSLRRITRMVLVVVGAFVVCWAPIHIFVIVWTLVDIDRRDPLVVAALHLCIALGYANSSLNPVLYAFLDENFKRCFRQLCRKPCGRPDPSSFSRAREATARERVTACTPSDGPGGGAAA
UniProt P33535, whole entry, looked up: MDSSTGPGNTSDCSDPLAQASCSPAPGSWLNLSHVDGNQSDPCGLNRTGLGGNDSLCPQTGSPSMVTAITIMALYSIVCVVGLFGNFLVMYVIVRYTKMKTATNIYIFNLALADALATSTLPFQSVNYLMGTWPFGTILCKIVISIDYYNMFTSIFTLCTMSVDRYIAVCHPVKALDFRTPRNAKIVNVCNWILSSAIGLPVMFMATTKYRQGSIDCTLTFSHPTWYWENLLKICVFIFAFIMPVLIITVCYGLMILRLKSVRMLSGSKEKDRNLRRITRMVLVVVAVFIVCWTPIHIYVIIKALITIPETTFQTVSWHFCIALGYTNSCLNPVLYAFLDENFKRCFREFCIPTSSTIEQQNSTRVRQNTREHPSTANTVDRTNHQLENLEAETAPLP
UniProt P32300, whole entry, looked up: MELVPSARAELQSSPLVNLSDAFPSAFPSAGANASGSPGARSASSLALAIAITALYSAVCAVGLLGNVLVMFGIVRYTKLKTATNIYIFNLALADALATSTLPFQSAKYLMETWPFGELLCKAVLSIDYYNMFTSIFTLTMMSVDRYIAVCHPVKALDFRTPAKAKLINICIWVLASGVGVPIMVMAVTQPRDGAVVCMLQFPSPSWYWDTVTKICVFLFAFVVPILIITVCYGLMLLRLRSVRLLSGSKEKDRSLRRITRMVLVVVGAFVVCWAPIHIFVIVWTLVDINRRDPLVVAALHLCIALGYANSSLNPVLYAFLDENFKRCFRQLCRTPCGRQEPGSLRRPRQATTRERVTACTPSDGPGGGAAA
UniProt Q8CGM4, 1-400: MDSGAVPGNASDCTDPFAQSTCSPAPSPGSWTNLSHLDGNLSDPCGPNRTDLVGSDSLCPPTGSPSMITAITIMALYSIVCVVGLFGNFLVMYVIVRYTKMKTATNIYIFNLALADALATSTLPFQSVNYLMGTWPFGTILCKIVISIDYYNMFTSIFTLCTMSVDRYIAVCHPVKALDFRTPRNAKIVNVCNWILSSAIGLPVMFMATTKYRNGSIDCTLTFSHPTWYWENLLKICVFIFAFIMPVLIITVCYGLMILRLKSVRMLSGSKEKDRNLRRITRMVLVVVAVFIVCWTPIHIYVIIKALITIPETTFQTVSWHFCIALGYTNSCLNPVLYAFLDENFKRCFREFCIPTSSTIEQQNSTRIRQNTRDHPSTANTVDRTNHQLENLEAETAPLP

SMILES	Ki [1]	Log IC50 [1]	Ki (Mu-type opioid receptor [2])	Log IC50 (Mu-type opioid receptor [2])	EC50 [3]	EC50 (Mu-type opioid receptor [4])	IC50 [5]	IC50 (Mu-opioid receptor)
C[C@@H](NC(=O)[C@@H](N)Cc1ccc(O)cc1)C(=O)NCC(=O)N[C@@H](Cc1ccccc1)C(=O)NNC(=O)CCC(=O)NC1CCN(CCc2ccccc2)CC1	3.7 nM	-8.12	1.2 nM	-8.6	29 nM	16 nM	250 nM	47 nM
C[C@@H](NC(=O)[C@@H](N)Cc1ccc(O)cc1)C(=O)NCC(=O)N[C@@H](Cc1ccccc1)C(N)=O							120 nM	47 nM
C[C@@H](NC(=O)[C@@H](N)Cc1ccc(O)cc1)C(=O)NCC(=O)N[C@@H](Cc1ccccc1)C(=O)NC1CCN(CCc2ccccc2)CC1	14 nM	-7.51	14 nM	-7.52			380 nM	160 nM

Source: ChEMBL document CHEMBL1137610, “Development of novel enkephalin analogues that have enhanced opioid activities at both mu and delta opioid receptors” (2007)
